{
  "source": "paper PMC4836378",
  "about": "(Journal of medicinal chemistry, 2016)",
  "target": "T1, CYP26A1 (Homo sapiens, UniProt O43174)",
  "T1 sequence (O43174 1-497)": "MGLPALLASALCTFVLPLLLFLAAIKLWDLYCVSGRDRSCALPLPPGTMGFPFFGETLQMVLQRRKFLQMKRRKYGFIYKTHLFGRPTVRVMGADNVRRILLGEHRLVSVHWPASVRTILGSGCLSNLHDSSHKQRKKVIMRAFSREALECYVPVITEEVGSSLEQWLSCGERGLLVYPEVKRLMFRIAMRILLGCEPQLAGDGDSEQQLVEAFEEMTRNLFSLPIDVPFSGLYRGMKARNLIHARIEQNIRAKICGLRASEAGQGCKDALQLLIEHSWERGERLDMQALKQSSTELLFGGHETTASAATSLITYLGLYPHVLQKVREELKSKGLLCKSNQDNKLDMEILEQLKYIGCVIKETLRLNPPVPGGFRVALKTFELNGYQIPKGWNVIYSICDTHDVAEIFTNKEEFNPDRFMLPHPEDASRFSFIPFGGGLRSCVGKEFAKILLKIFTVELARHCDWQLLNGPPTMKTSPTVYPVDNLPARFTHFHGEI",
  "assay": "CYP26A1 inhibition assay",
  "conditions": "CYP26B1 IC50 versus CYP26A1 IC50",
  "data": [
    {"smiles": "CC1(C)CCC(C)(C)c2cc(C3(c4ccc(/C=C/C(=O)O)cc4)OCCO3)ccc21", "note": "[Compound 22, (E)-3-(4-(2-(5,5,8,8-Tetramethyl-5,6,7,8-tetrahydronaphthalen-2-yl)-1,3-dioxolan-2-yl)phenyl)-acrylic acid]", "values": [
      {"measurement": "Selectivity towards CYP26A1 compared to CYP26B1 (ratio of IC50)", "value": "> 40", "unit": "fold"}
    ]}
  ]
}
